Source: ChEMBL document CHEMBL3872253, “Synthesis and in vitro antiproliferative activity of C5-benzyl substituted 2-amino-pyrrolo[2,3-d]pyrimidines as potent Hsp90 inhibitors” (Bioorg Med Chem Lett, 2017)

Assay: cells
Conditions: Homo sapiens, NCI-H322M, 48 h

## CC(C)NCCCn1c(Sc2cc3c(cc2I)OCO3)nc2c(N)ncnc21 [PU-H71]
  GI50: 0.17 µM
